Consider one substance from patent US20100272648A1, “Methods of Identifying Improved NMDA Receptor Antagonists” (priority 2008, published 2010).

Sequences of proteins named here, by UniProt entry; tags and fusion partners are left off. Residues count along the entry.
UniProt Q00959, 23-1464: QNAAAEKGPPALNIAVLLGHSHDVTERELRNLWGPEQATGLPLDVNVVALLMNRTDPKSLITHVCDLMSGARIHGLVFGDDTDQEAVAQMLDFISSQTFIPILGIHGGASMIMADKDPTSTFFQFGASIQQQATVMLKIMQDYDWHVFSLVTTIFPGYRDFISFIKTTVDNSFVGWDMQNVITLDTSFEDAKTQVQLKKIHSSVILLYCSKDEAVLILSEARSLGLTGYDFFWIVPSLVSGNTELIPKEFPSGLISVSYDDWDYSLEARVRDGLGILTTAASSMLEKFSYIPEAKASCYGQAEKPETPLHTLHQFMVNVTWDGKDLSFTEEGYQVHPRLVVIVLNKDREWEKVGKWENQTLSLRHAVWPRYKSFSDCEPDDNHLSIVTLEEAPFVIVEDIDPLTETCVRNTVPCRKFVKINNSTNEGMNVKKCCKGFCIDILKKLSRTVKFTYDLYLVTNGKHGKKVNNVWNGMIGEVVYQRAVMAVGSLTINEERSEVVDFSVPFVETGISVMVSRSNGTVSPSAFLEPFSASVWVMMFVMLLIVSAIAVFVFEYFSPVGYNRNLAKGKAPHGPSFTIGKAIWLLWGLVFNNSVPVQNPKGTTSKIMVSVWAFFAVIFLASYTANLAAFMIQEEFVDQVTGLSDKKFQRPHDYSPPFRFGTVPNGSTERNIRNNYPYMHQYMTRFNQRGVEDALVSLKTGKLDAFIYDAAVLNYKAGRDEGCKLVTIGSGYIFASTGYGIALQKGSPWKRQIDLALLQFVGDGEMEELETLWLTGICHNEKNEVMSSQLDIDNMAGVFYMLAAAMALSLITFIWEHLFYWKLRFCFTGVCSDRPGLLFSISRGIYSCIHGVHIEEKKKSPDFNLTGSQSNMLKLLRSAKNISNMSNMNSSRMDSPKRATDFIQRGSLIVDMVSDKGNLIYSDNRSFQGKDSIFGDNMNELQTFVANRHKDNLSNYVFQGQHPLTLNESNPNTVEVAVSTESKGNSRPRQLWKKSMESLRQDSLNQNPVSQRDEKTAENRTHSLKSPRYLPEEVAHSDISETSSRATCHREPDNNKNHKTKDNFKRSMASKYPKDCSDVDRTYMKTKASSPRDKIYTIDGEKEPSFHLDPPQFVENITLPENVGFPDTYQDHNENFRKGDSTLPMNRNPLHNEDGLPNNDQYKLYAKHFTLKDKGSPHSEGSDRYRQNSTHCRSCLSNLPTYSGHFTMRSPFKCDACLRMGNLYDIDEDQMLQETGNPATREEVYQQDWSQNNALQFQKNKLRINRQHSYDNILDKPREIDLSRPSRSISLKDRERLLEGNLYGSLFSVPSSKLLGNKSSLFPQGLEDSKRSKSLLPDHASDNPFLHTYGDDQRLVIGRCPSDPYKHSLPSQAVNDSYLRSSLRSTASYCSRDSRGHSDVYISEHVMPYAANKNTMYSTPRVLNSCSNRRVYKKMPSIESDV

The target of data set [1] is NR1/NR2A receptors (Rattus norvegicus, UniProt P35439+Q00959). The experiment in a line: In vitro potency boost pH 6.9 vs 7.6 (NR1/NR2A, oocytes) versus infarct volume (FIG. 4). As to conditions: potency boost pH 6.9 vs 7.6 versus infarct volume.
The nature of data set [2]: Locomotor activity of rats (light beam breaks). As to conditions: compared to vehicle injected control animals. The data set is classed as in vivo, Sprague-Dawley rats. As for the experimental part:
Locomotor activity was monitored after injection for 2 hours.

(−) MK801: the “mean within shaded area (criteria for superior drug performance), NR1/NR2A” value in data set [1] is recorded as “fall within the shaded area”. Further, the “potency in causing induction of locomotor activity, fold less potent than (+)MK801” value in data set [2] is “at least 10 fold”.
